{"sequences": {"note": "Chains of the proteins cited; added tags and fusions are not shown. Residues count along the entry.", "UniProt O75417, 1780-2590": "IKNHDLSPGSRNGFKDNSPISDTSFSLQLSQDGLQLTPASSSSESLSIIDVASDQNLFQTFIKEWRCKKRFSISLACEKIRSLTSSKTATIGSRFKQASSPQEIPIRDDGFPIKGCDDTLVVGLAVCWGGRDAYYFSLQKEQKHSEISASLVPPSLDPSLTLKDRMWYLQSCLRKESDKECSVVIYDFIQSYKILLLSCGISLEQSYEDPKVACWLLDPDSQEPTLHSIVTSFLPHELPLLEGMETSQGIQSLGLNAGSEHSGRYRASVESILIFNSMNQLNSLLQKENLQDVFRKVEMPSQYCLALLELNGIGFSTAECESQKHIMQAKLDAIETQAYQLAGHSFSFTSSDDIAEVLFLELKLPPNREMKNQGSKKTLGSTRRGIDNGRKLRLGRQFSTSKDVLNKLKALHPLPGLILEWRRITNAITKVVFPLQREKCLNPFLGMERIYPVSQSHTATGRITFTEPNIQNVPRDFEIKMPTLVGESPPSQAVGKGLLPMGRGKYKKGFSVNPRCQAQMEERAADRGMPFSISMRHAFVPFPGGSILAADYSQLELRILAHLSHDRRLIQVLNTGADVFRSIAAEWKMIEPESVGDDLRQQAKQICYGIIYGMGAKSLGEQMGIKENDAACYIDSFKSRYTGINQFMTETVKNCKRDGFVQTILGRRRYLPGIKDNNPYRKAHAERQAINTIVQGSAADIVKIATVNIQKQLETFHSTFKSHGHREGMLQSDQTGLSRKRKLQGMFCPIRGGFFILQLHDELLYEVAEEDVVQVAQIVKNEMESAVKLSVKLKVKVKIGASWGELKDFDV"}, "source": "patent US20250195530A1", "about": "“POLQ INHIBITORS” (ASTRAZENECA AB, priority 2022, published 2025)", "biological_target": "isolated polymerase domain (I1780-V2590) of DNA polymerase theta (Polθ) (Homo sapiens (Human), UniProt O75417)", "data": [{"smiles": "CC1(Oc2ncnc3c2nc(-c2ccc(OC[C@H]4C[C@H](C(=O)O)C4)cc2Cl)n3Cc2ccccc2C#N)CC1", "note": "[Example U27, (1r,3r)-3-((3-chloro-4-(9-(2-cyanobenzyl)-6-(1-methylcyclopropoxy)-9H-purin-8-yl)phenoxy)methyl)cyclobutane-1-carboxylic acid]", "values": [{"measurement": "IC50", "value": 12.6, "unit": "nM"}]}, {"smiles": "Cc1ccc(F)c(Cn2c(-c3ccc(OCCN4CCN(C)CC4)cc3Cl)nc3cc(OC(C)C)ccc32)c1Cl", "note": "[Example A6, 2-(2-chloro-4-(2-(4-methylpiperazin-1-yl)ethoxy)phenyl)-1-(2-chloro-6-fluoro-3-methylbenzyl)-5-isopropoxy-1H-benzo[d]imidazole]", "values": [{"measurement": "IC50", "value": 10, "unit": "nM"}]}, {"smiles": "CC1(Oc2ncnc3c2nc(-c2cccc(OC4CCNCC4)c2Cl)n3Cc2ccccc2)CC1", "note": "[Example D11, 9-benzyl-8-(2-chloro-3-(piperidin-4-yloxy)phenyl)-6-(1-methylcyclopropoxy)-9H-purine]", "values": [{"measurement": "IC50", "value": 2.51, "unit": "nM"}]}, {"smiles": "COc1cccc(-c2nc3c(OC4(C)CC4)ncnc3n2Cc2ccccc2)c1Cl", "note": "[Example C6, 9-benzyl-8-(2-chloro-3-methoxyphenyl)-6-(1-methylcyclopropoxy)-9H-purine]", "values": [{"measurement": "IC50", "value": 2, "unit": "nM"}]}, {"smiles": "Cc1cc(OCCN2CCN(C)CC2)ccc1-c1nc2c(OC(C)C)ncnc2n1Cc1ccccc1", "note": "[Example 1, 9-Benzyl-6-isopropoxy-8-(2-methyl-4-(2-(4-methylpiperazin-1-yl)ethoxy)phenyl)-9H-purine]", "values": [{"measurement": "IC50", "value": 2.51, "unit": "nM"}]}, {"smiles": "CC1(Oc2ncnc3c2nc(-c2ccc(O[C@H]4CC[C@H](C(=O)O)CC4)cc2Cl)n3Cc2cccc(Cl)c2)CC1", "note": "[Example T540, (1r,4r)-4-(3-chloro-4-(9-(3-chlorobenzyl)-6-(1-methylcyclopropoxy)-9H-purin-8-yl)phenoxy)cyclohexane-1-carboxylic acid]", "values": [{"measurement": "IC50", "value": 3.98, "unit": "nM"}]}, {"smiles": "CN(C)C(=O)COc1ccc(-c2nc3c(OC4(C)CC4)ncnc3n2Cc2ccccc2)c(Cl)c1", "note": "[Example D20, 2-(4-(9-benzyl-6-(1-methylcyclopropoxy)-9H-purin-8-yl)-3-chlorophenoxy)-N,N-dimethylacetamide]", "values": [{"measurement": "IC50", "value": 3.98, "unit": "nM"}]}, {"smiles": "Cc1cc(OCCN2CCNCC2)ncc1-c1nc2c(OC3(C)CC3)ncnc2n1Cc1ccccc1", "note": "[Example G6, 9-benzyl-8-(4-methyl-6-(2-(piperazin-1-yl)ethoxy)pyridin-3-yl)-6-(1-methylcyclopropoxy)-9H-purine]", "values": [{"measurement": "IC50", "value": 2.51, "unit": "nM"}]}, {"smiles": "Cc1ccnc(Cn2c(-c3ccc(OC4CN(C(=O)CO)C4)cc3Cl)nc3c(OC4(C)CC4)ncnc32)c1", "note": "[Example 39, 1-(3-(3-Chloro-4-(6-(1-methylcyclopropoxy)-9-((4-methylpyridin-2-yl)methyl)-9H-purin-8-yl)phenoxy)azetidin-1-yl)-2-hydroxyethan-1-one]", "values": [{"measurement": "IC50", "value": 5.01, "unit": "nM"}]}, {"smiles": "Cc1ccnc(Cn2c(-c3ccc(OCC(=O)N(C)[C@H]4C[C@@H](O)C4)cc3Cl)nc3c(OC4(C)CC4)ncnc32)c1", "note": "[Example T582, 2-(3-chloro-4-(6-(1-methylcyclopropoxy)-9-((4-methylpyridin-2-yl)methyl)-9H-purin-8-yl)phenoxy)-N-((1s,3s)-3-hydroxycyclobutyl)-N-methylacetamide]", "values": [{"measurement": "IC50", "value": 10, "unit": "nM"}]}, {"smiles": "CC1(Oc2ncnc3c2nc(-c2ccc(OC[C@H]4CCCN4)cc2Cl)n3Cc2ccccc2)CC1", "note": "[Example D25, (R)-9-benzyl-8-(2-chloro-4-(pyrrolidin-2-ylmethoxy)phenyl)-6-(1-methylcyclopropoxy)-9H-purine]", "values": [{"measurement": "IC50", "value": 6.31, "unit": "nM"}]}, {"smiles": "CC1(Oc2ccnc3c2nc(-c2ccc(OCCN4CCNCC4)cc2Cl)n3Cc2ccccc2)CCC1", "note": "[Example P4, 3-benzyl-2-(2-chloro-4-(2-(piperazin-1-yl)ethoxy)phenyl)-7-(1-methylcyclobutoxy)-3H-imidazo[4,5-b]pyridine]", "values": [{"measurement": "IC50", "value": 6.31, "unit": "nM"}]}, {"smiles": "CC(C)(Oc1ncnc2c1nc(-c1ccc(OCCN3CCNCC3)cc1Cl)n2Cc1ccccc1)C(F)(F)F", "note": "[Example 11, 9-Benzyl-8-(2-chloro-4-(2-(piperazin-1-yl)ethoxy)phenyl)-6-((1,1,1-trifluoro-2-methylpropan-2-yl)oxy)-9H-purine]", "values": [{"measurement": "IC50", "value": 2.51, "unit": "nM"}]}, {"smiles": "CN1CCN(CCOc2ccc(-c3nc4c(OC5(C)CC5)ncnc4n3Cc3ccncc3)c(Cl)c2)CC1", "note": "[Example K1, 8-(2-chloro-4-(2-(4-methylpiperazin-1-yl)ethoxy)phenyl)-6-(1-methylcyclopropoxy)-9-(pyridin-4-ylmethyl)-9H-purine]", "values": [{"measurement": "IC50", "value": 50.1, "unit": "nM"}]}, {"smiles": "Cc1ccnc(Cn2c(-c3ccc(C(=O)N(C)[C@H]4C[C@@H](O)C4)cc3Cl)nc3c(OC4(C)CC4)ncnc32)c1", "note": "[Example T468, 3-chloro-N-((1s,3s)-3-hydroxycyclobutyl)-N-methyl-4-(6-(1-methylcyclopropoxy)-9-((4-methylpyridin-2-yl)methyl)-9H-purin-8-yl)benzamide]", "values": [{"measurement": "IC50", "value": 50.1, "unit": "nM"}]}, {"smiles": "CC1(Oc2ncnc3c2nc(-c2ccc(OCCN4CC5(CNC5)C4)cc2Cl)n3Cc2ccccc2)CC1", "note": "[Example 18, 8-(4-(2-(2,6-Diazaspiro[3.3]heptan-2-yl)ethoxy)-2-chlorophenyl)-9-benzyl-6-(1-methylcyclopropoxy)-9H-purine]", "values": [{"measurement": "IC50", "value": 3.16, "unit": "nM"}]}, {"smiles": "Cc1cccnc1Cn1c(-c2ccc(OCCN3CCNCC3)cc2Cl)nc2c(OC3(C)CC3)ncnc21", "note": "[Example L9, 8-(2-chloro-4-(2-(piperazin-1-yl)ethoxy)phenyl)-6-(1-methylcyclopropoxy)-9-((3-methylpyridin-2-yl)methyl)-9H-purine]", "values": [{"measurement": "IC50", "value": 12.6, "unit": "nM"}]}, {"smiles": "Cc1ccc(Cn2c(-c3ccc(OCCN4CCNCC4)cc3Cl)nc3c(OC4(C)CC4)ncnc32)nc1", "note": "[Example L8, 8-(2-chloro-4-(2-(piperazin-1-yl)ethoxy)phenyl)-6-(1-methylcyclopropoxy)-9-((5-methylpyridin-2-yl)methyl)-9H-purine]", "values": [{"measurement": "IC50", "value": 6.31, "unit": "nM"}]}, {"smiles": "CC1(Oc2ncnc3c2nc(-c2ccc(OCCN4CCN[C@@H](CC#N)C4)cc2Cl)n3Cc2ccccc2)CC1", "note": "[Example R23, (S)-2-(4-(2-(4-(9-benzyl-6-(1-methylcyclopropoxy)-9H-purin-8-yl)-3-chlorophenoxy)ethyl)piperazin-2-yl)acetonitrile]", "values": [{"measurement": "IC50", "value": 2.51, "unit": "nM"}]}, {"smiles": "N#CC1(Oc2ncnc3c2nc(-c2ccc(OCCN4CCNCC4)cc2Cl)n3Cc2cccc(Cl)c2)CC1", "note": "[Example Q5, 1-((8-(2-chloro-4-(2-(piperazin-1-yl)ethoxy)phenyl)-9-(3-chlorobenzyl)-9H-purin-6-yl)oxy)cyclopropane-1-carbonitrile]", "values": [{"measurement": "IC50", "value": 5.01, "unit": "nM"}]}, {"smiles": "COc1ccc(Cl)cc1Cn1c(-c2ccc(O[C@H]3CC[C@H](C(=O)O)CC3)cc2Cl)nc2c(OC3(C)CC3)ncnc21", "note": "[Example U43, (1r,4r)-4-(3-chloro-4-(9-(5-chloro-2-methoxybenzyl)-6-(1-methylcyclopropoxy)-9H-purin-8-yl)phenoxy)cyclohexane-1-carboxylic acid]", "values": [{"measurement": "IC50", "value": 7.94, "unit": "nM"}]}, {"smiles": "CC(CCOc1ccc(-c2nc3c(OC4(C)CC4)ncnc3n2Cc2ccccc2C2CC2)c(Cl)c1)C(=O)O", "note": "(single isomer, unassigned) [Example T600, 4-(3-chloro-4-(9-(2-cyclopropylbenzyl)-6-(1-methylcyclopropoxy)-9H-purin-8-yl)phenoxy)-2-methylbutanoic acid]", "values": [{"measurement": "IC50", "value": 6.31, "unit": "nM"}]}, {"smiles": "CC1(Oc2ncnc3c2nc(-c2ccc(OCCN4CCNCC4)cc2Cl)n3Cc2cc(Cl)ccn2)CC1", "note": "[Example 10, 8-(2-Chloro-4-(2-(piperazin-1-yl)ethoxy)phenyl)-9-((4-chloropyridin-2-yl)methyl)-6-(1-methylcyclopropoxy)-9H-purine]", "values": [{"measurement": "IC50", "value": 6.31, "unit": "nM"}]}, {"smiles": "CC(CCOc1ccc(-c2nc3c(OC4(C)CC4)ncnc3n2Cc2cccc(Cl)c2F)c(Cl)c1)C(=O)O", "note": "(single isomer, unassigned) [Example T271, 4-(3-chloro-4-(9-(3-chloro-2-fluorobenzyl)-6-(1-methylcyclopropoxy)-9H-purin-8-yl)phenoxy)-2-methylbutanoic acid]", "values": [{"measurement": "IC50", "value": 6.31, "unit": "nM"}]}, {"smiles": "CC1(Oc2ncnc3c2nc(-c2ccc(OCCN4CCC[C@@H](O)C4)cc2Cl)n3Cc2ccccc2)CC1", "note": "[Example R7, (R)-1-(2-(4-(9-benzyl-6-(1-methylcyclopropoxy)-9H-purin-8-yl)-3-chlorophenoxy)ethyl)piperidin-3-ol]", "values": [{"measurement": "IC50", "value": 3.16, "unit": "nM"}]}, {"smiles": "CC1(Oc2ncnc3c2nc(-c2ccc(OCCN4CCC[C@H]4C(=O)O)cc2Cl)n3Cc2ccccc2)CC1", "note": "[Example H12, (2-(4-(9-benzyl-6-(1-methylcyclopropoxy)-9H-purin-8-yl)-3-chlorophenoxy)ethyl)-L-proline]", "values": [{"measurement": "IC50", "value": 6.31, "unit": "nM"}]}, {"smiles": "CC1(Oc2ncnc3c2nc(-c2ccc(C(N)=O)cc2Cl)n3Cc2ccccc2)CC1", "note": "[Example N4, 4-(9-benzyl-6-(1-methylcyclopropoxy)-9H-purin-8-yl)-3-chlorobenzamide]", "values": [{"measurement": "IC50", "value": 3.16, "unit": "nM"}]}, {"smiles": "COc1cccc(Cn2c(-c3ccc(OCCN4CCNCC4)cc3Cl)nc3c(OC4(C)CC4)ncnc32)n1", "note": "[Example K10, 8-(2-chloro-4-(2-(piperazin-1-yl)ethoxy)phenyl)-9-((6-methoxypyridin-2-yl)methyl)-6-(1-methylcyclopropoxy)-9H-purine]", "values": [{"measurement": "IC50", "value": 7.94, "unit": "nM"}]}, {"smiles": "CC1(Oc2ncnc3c2nc(-c2ccc(OCCCN4CCNCC4=O)cc2Cl)n3Cc2ccccc2)CC1", "note": "[Example S1, 1-(3-(4-(9-benzyl-6-(1-methylcyclopropoxy)-9H-purin-8-yl)-3-chlorophenoxy)propyl)piperazin-2-one]", "values": [{"measurement": "IC50", "value": 3.98, "unit": "nM"}]}, {"smiles": "CC1(Oc2ncnc3c2nc(-c2ccc(OCCN4CCNCC4)cc2Cl)n3Cc2ccccn2)CCC1", "note": "[Example J7, 8-(2-chloro-4-(2-(piperazin-1-yl)ethoxy)phenyl)-6-(1-methylcyclobutoxy)-9-(pyridin-2-ylmethyl)-9H-purine]", "values": [{"measurement": "IC50", "value": 5.01, "unit": "nM"}]}, {"smiles": "CC1(Oc2ncnc3c2nc(-c2ccc(OCCN4CCC(O)CC4)cc2Cl)n3Cc2ccccc2)CC1", "note": "[Example H15, 1-(2-(4-(9-benzyl-6-(1-methylcyclopropoxy)-9H-purin-8-yl)-3-chlorophenoxy)ethyl)piperidin-4-ol]", "values": [{"measurement": "IC50", "value": 2.51, "unit": "nM"}]}, {"smiles": "CC1(Oc2ncnc3c2nc(-c2ccc(OC4CC5(CNC5)C4)cc2Cl)n3Cc2ccccc2)CC1", "note": "[Example D34, 8-(4-((2-azaspiro[3.3]heptan-6-yl)oxy)-2-chlorophenyl)-9-benzyl-6-(1-methylcyclopropoxy)-9H-purine]", "values": [{"measurement": "IC50", "value": 2.51, "unit": "nM"}]}, {"smiles": "CC1(Oc2ncnc3c2nc(-c2cccc(O[C@H]4CC[C@@H](C(=O)O)CC4)c2Cl)n3Cc2cccc(Cl)c2)CC1", "note": "[Example T543, (1s,4s)-4-(2-chloro-3-(9-(3-chlorobenzyl)-6-(1-methylcyclopropoxy)-9H-purin-8-yl)phenoxy)cyclohexane-1-carboxylic acid]", "values": [{"measurement": "IC50", "value": 3.98, "unit": "nM"}]}]}
